The chains behind the UniProt entries cited, without tags or fusion partners. Residues count along the entry.
UniProt P35968, 786-1356: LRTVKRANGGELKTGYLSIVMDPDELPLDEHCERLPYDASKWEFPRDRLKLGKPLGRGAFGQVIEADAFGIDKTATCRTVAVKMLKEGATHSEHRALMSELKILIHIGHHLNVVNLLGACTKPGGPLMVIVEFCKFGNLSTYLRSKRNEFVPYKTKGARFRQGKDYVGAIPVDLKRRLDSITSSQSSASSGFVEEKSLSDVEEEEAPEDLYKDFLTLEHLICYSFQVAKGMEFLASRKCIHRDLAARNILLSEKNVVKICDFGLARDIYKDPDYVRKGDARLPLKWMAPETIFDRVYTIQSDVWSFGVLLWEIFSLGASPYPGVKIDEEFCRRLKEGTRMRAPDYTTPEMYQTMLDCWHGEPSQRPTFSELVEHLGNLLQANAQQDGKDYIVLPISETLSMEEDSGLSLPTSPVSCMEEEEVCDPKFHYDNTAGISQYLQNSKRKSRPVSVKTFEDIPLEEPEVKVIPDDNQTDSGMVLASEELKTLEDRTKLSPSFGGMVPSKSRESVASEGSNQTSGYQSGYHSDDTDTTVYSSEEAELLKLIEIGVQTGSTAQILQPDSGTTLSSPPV
UniProt P35968, 20-1356: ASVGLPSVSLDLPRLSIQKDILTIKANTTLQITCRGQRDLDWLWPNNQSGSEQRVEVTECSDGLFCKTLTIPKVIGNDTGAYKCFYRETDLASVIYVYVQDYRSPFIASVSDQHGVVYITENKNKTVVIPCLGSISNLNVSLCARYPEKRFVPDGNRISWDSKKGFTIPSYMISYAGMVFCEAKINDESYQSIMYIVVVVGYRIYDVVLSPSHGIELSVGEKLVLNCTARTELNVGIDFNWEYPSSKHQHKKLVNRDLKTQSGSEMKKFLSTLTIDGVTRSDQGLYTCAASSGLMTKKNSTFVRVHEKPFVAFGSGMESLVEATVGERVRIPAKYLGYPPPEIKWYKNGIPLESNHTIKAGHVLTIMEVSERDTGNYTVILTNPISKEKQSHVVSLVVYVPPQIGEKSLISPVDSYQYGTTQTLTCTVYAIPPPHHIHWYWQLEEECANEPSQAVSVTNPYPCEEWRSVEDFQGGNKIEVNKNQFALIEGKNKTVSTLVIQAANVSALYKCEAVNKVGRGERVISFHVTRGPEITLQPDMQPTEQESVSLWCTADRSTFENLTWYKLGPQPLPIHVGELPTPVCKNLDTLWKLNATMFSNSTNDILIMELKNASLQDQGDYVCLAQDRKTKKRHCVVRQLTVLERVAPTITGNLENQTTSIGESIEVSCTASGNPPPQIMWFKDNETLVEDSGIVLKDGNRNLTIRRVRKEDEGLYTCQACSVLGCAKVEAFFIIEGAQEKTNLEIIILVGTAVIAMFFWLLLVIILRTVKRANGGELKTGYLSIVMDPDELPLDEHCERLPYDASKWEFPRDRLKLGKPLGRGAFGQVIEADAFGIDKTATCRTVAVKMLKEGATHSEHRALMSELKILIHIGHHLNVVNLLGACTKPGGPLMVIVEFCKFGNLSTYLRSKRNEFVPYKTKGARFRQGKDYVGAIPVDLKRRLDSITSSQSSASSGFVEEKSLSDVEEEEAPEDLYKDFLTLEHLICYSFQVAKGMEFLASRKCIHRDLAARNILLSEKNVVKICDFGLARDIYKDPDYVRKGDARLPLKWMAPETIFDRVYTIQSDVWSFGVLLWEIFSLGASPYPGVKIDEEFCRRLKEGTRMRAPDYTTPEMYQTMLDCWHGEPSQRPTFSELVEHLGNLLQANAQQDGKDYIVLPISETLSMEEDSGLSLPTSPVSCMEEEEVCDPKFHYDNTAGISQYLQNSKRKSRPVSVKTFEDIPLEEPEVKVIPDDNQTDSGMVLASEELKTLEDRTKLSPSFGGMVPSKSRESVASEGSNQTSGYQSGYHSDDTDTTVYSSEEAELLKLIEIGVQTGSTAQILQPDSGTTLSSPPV
UniProt P09619, 554-1106: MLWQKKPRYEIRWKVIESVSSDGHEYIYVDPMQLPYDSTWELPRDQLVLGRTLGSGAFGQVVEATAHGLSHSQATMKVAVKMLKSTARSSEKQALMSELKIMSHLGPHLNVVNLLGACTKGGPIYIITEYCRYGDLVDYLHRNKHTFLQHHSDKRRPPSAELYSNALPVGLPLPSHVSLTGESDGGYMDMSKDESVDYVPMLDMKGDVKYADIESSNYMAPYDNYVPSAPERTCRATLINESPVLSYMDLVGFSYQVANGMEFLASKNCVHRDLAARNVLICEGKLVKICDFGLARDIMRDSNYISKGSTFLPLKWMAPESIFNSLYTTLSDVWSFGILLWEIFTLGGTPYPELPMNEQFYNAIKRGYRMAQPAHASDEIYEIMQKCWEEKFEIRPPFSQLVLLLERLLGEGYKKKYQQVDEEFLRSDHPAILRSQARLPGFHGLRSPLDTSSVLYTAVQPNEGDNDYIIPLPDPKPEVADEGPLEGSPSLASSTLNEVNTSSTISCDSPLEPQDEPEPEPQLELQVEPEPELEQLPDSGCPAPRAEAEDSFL
UniProt P09619, 33-1106: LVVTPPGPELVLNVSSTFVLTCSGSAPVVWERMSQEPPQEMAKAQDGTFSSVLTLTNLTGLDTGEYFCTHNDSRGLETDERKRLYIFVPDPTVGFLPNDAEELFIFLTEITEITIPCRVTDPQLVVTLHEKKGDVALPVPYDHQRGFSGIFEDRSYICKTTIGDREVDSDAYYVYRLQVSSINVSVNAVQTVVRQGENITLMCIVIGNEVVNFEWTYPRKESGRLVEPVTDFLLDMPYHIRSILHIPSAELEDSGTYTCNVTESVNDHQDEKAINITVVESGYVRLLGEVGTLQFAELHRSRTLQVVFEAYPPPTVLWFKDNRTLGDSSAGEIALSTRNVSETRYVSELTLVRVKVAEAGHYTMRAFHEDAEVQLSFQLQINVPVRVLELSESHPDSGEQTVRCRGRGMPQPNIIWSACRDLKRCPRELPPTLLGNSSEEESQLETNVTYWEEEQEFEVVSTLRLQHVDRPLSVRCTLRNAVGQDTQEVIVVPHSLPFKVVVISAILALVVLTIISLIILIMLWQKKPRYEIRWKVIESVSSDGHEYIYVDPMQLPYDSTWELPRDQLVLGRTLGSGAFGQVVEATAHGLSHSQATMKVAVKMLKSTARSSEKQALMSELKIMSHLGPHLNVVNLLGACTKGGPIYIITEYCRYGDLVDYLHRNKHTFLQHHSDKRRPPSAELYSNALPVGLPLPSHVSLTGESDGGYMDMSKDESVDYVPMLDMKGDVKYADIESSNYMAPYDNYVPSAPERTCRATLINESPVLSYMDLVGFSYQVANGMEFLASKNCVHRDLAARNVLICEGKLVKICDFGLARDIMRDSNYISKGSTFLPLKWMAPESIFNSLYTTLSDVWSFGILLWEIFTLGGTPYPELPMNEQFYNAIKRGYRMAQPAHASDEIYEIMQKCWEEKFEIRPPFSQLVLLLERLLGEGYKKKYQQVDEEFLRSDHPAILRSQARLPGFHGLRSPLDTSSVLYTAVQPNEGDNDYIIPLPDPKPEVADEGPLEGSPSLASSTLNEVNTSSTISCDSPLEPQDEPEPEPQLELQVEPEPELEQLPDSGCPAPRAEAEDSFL

According to patent publication US9266869B2, “Substituted dialkyl(oxido)-lambda4-sulfanylidene nicotinamide derivatives as kinase inhibitors” (Allergan, Inc., priority 2013, dated 2016):

Legend:
[1] = molecular target: VEGFR2 (KDR) (Homo sapiens (Human), UniProt P35968); assay: VEGFR2 Kinase Assay; assay type: biochemical; conditions: purified cytoplasmic domain KDR protein, 2.7 μM ATP; read-out: VEGFR2 Enzyme Assay (IC50 nM)
Method: VEGFR2 Kinase Assay Biochemical KDR kinase assays were performed in 96 well microtiter plates that were coated overnight with 75 μg/well of poly-Glu-[…]:1) in 10 mM Phosphate Buffered Saline (PBS), pH 7.4. […] Reactions were carried out in 100 μL reaction volumes containing 2.7 μM ATP in kinase buffer (50 mM Hepes buffer pH 7.4, 20 mM MgCl2, 0.1 mM MnCl2 and 0.2 mM Na3VO4). […] Reactions were initiated by the addition 20 ul per well of kinase buffer containing 200-300 ng purified cytoplasmic domain KDR protein (BPS Bioscience, San Diego, Calif.). Following a 15 minute incubation at 30° C., the reactions were washed 2 mls per well PBS-T. 100 μl of a monoclonal anti-phosphotyrosine antibody-peroxidase conjugate diluted 1:10,000 in PBS-T was added to the wells for 30 minutes. Following a 2 mls per well wash with PBS-Tween-20, 100 μl of 0-Phenylenediamine Dihydrochloride in phosphate-citrate buffer, containing urea hydrogen peroxide, was added to the wells for 7-10 minutes as a colorimetric substrate for the peroxidase. The reaction was terminated by the addition of 100 μl of 2.5N H2SO4 to each well and read using a microplate ELISA reader set at 492 nm. IC50 values for compound inhibition were calculated directly from graphs of optical density (arbitrary units) versus compound concentration following subtraction of blank values.

[2] = molecular target: VEGFR2 (Homo sapiens (Human), UniProt P35968); assay: VEGFR2 Cellular Assay (VEGF induced intracellular calcium, FLIPR, HUVEC); assay type: cell-based; conditions: VEGF165 stimulation (10 ng/mL)
Method: (§1) VEGFR2 Cellular Assay Automated FLIPR (Fluorometric Imaging Plate Reader) technology was used to screen for inhibitors of VEGF induced increases in intracellular calcium levels in fluorescent dye loaded endothelial cells. HUVEC (human umbilical vein endothelial cells) (Clonetics) were seeded in 384-well fibronectin coated black-walled plates overnight @ 37° C./5% CO2. Cells were loaded with calcium indicator Fluo-4 for 45 minutes at 37° C. Cells were washed 2 times (Elx405, Biotek Instruments) to remove extracellular dye. For screening, cells were pre-incubated with test agents for 30 minutes, at a single concentration (10 uM) or at concentrations ranging from 0.0001 to 10.0 uM followed by VEGF165 stimulation (10 ng/mL). Changes in fluorescence at 516 nm were measured simultaneously in all 384 wells using a cooled CCD camera. Data were generated by determining max-min fluorescence levels for unstimulated, stimulated, and drug treated samples. IC50 values for test compounds were calculated from % inhibition of VEGF stimulated responses in the absence of inhibitor.

[3] = molecular target: T1, PDGFRβ (Homo sapiens (Human), UniProt P09619); assay: PDGFRβ Kinase Assay; assay type: biochemical; conditions: purified cytoplasmic domain PDGFR-b protein, 36 μM ATP; read-out: PDGFRβ Enzyme Assay (IC50 nM)
Method: Biochemical PDGFRβ kinase assays were performed in 96 well microtiter plates that were coated overnight with 75 μg of poly-Glu-Tyr (4:1) in 10 mM Phosphate Buffered Saline (PBS), pH 7.4. The coated plates were washed with 2 mls per well PBS+0.05% Tween-20 (PBS-T), blocked by incubation with PBS containing 1% BSA, then washed with 2 mls per well
PBS-T prior to starting the reaction. Reactions were carried out in 100 μL reaction volumes containing 36 μM ATP in kinase buffer (50 mM Hepes buffer pH 7.4, 20 mM MgCl2, 0.1 mM MnCl2 and 0.2 mM Na3VO4). Test compounds were reconstituted in 100% DMSO and added to the reaction to give a final DMSO concentration of 5%. Reactions were initiated by the addition 20 ul per well of kinase buffer containing 200-300 ng purified cytoplasmic domain PDGFR-b protein (Millipore). Following a 60 minute incubation at 30° C., the reactions were washed 2 mls per well PBS-T. 100 μl of a monoclonal anti-phosphotyrosine antibody-peroxidase conjugate diluted 1:10,000 in PBS-T was added to the wells for 30 minutes. […] The reaction was terminated by the addition of 100 μl of 2.5N H2SO4 to each well and read using a microplate ELISA reader set at 492 nm. IC50 values for compound inhibition were calculated directly from graphs of optical density (arbitrary units) versus compound concentration following subtraction of blank values.

[4] = molecular target: T1, PDGFRβ; assay: PDGFRβ Cellular Assay (PDGF-induced intracellular calcium, FLIPR, NHDF-Ad); assay type: cell-based; conditions: PDGF-BB stimulation (30 ng/mL)
Method: as §1, with “Automated” for “VEGFR2 Cellular Assay Automated”, “of PDGF-induced” for “of VEGF induced”, “[…]. NHDF-Ad (Normal Human Dermal Fibroblasts, Adult; Lonza)” for “cells. HUVEC (human umbilical vein endothelial cells) (Clonetics)”, “by PDGF-BB” for “by VEGF165”, “stimulation (30” for “stimulation (10”, “of PDGF-BB” for “of VEGF”

| Compound | IC50 [1] [nM] | IC50 [2] [nM] | IC50 [3] [nM] | IC50 [4] [nM] |
| --- | --- | --- | --- | --- |
| Cc1ccoc1C(=O)Nc1cccc(C#Cc2cncc(C(=O)N=S(C)(C)=O)c2)c1 [Example 2, N-[Dimethyl(oxido)-λ^4-sulfanylidene]-5-({3-[(3-methyl-2-furoyl)amino]phenyl}ethynyl)nicotinamide] | 2 | 6 | 6 |  |
| Cc1ccc(F)c(C(=O)Nc2cccc(C#Cc3cc(C(=O)N=S(C)(C)=O)cnc3N)c2)c1 [Example 6] | 7 | 5 | 7 | 10 |
